Source: ChEMBL document CHEMBL5543159, “Discovery of an Ortho-Substituted N-Cyclopropylmethyl-7α-phenyl-6,14-endoethano-tetrahydronorthebaine Derivative as a Selective and Potent Kappa Opioid Receptor Agonist with Subsided Sedative Effect” (2024)

Experiment: Selectivity ratio of Ki for displacement of [3H]-DAMGO from rat MOR receptor to Ki for displacement of [3H]U69593 from human KOR

Q: With `COc1ccc2c3c1O[C@H]1[C@@]4(OC)CC[C@@]5(C[C@@H]4c4ccccc4NC(=O)c4ccc6[nH]ccc6c4)[C@@H](C2)N(CC2CC2)CC[C@]315` as the compound, how does the Ratio Ki read?
A: Its Ratio Ki is over 4.8.

Q: For `COc1ccc2c3c1O[C@H]1[C@@]4(OC)CC[C@@]5(C[C@@H]4c4ccccc4NCC4CCN(C(=O)OC(C)(C)C)CC4)[C@@H](C2)N(CC2CC2)CC[C@]315`, which Ratio Ki is on record?
A: Its Ratio Ki is over 2.8.

Q: For `COc1ccc2c3c1O[C@H]1[C@@]4(OC)CC[C@@]5(C[C@@H]4c4ccccc4N(C)Cc4ccc(C(F)(F)F)cc4)[C@@H](C2)N(CC2CC2)CC[C@]315`, which Ratio Ki is on record?
A: The Ratio Ki was 3.2.

Experiment: Selectivity ratio of Ki for displacement of [3H]DPDPE from rat DOR to Ki for displacement of [3H]U69593 from human KOR

Q: Which Ratio Ki does the source give for `COc1ccc2c3c1O[C@H]1[C@@]4(OC)CC[C@@]5(C[C@@H]4c4ccccc4NC(=O)c4ccc6[nH]ccc6c4)[C@@H](C2)N(CC2CC2)CC[C@]315` here?
A: Its Ratio Ki is over 4.8.

Q: With `COc1ccc2c3c1O[C@H]1[C@@]4(OC)CC[C@@]5(C[C@@H]4c4ccccc4NC(=O)c4ccccc4O)[C@@H](C2)N(CC2CC2)CC[C@]315` as the compound, how does the Ratio Ki read?
A: The Ratio Ki was 5.3.

Q: With `COc1ccc2c3c1O[C@H]1[C@@]4(OC)CC[C@@]5(C[C@@H]4c4ccccc4NCC4CCN(C(=O)OC(C)(C)C)CC4)[C@@H](C2)N(CC2CC2)CC[C@]315` as the compound, how does the Ratio Ki read?
A: The Ratio Ki was over 2.8.

Q: Which Ratio Ki does the source give for `COc1ccc2c3c1O[C@H]1[C@@]4(OC)CC[C@@]5(C[C@@H]4c4ccccc4NC(=O)c4ccc(C)c(C)c4)[C@@H](C2)N(CC2CC2)CC[C@]315` here?
A: Its Ratio Ki is over 93.5.

Q: With `COc1ccc2c3c1O[C@H]1[C@@]4(OC)CC[C@@]5(C[C@@H]4c4ccccc4NCC4CC4)[C@@H](C2)N(CC2CC2)CC[C@]315` as the compound, how does the Ratio Ki read?
A: The Ratio Ki was over 22.9.

Q: For `COc1ccc(CNc2ccccc2[C@H]2C[C@@]34CC[C@]2(OC)[C@@H]2Oc5c(OC)ccc6c5[C@@]23CCN(CC2CC2)[C@@H]4C6)cc1`, which Ratio Ki is on record?
A: Its Ratio Ki is over 40.

Q: With `COc1ccc2c3c1O[C@H]1[C@@]4(OC)CC[C@@]5(C[C@@H]4c4ccccc4NC(=O)c4ccc(Cl)c(Cl)c4)[C@@H](C2)N(CC2CC2)CC[C@]315` as the compound, how does the Ratio Ki read?
A: Its Ratio Ki is 1.5.

Q: Which Ratio Ki does the source give for `COc1ccc2c3c1O[C@H]1[C@@]4(OC)CC[C@@]5(C[C@@H]4c4ccccc4NC(=O)Cc4ccc(C)c(C)c4)[C@@H](C2)N(CC2CC2)CC[C@]315` here?
A: The Ratio Ki was under 0.5.

Q: With `COc1ccc2c3c1O[C@H]1[C@@]4(OC)CC[C@@]5(C[C@@H]4c4ccccc4NC(=O)C(C)(C)C)[C@@H](C2)N(CC2CC2)CC[C@]315` as the compound, how does the Ratio Ki read?
A: Its Ratio Ki is under 0.1.

Q: Which Ratio Ki does the source give for `COc1ccc2c3c1O[C@H]1[C@@]4(OC)CC[C@@]5(C[C@@H]4c4ccccc4N)[C@@H](C2)N(CC2CC2)CC[C@]315` here?
A: Its Ratio Ki is 70.4.

Q: With `CNc1ccccc1[C@H]1C[C@@]23CC[C@]1(OC)[C@@H]1Oc4c(OC)ccc5c4[C@@]12CCN(CC1CC1)[C@@H]3C5` as the compound, how does the Ratio Ki read?
A: Its Ratio Ki is 3.1.

Q: With `COc1ccc2c3c1O[C@H]1[C@@]4(OC)CC[C@@]5(C[C@@H]4c4ccccc4NCC4CCCC4)[C@@H](C2)N(CC2CC2)CC[C@]315` as the compound, how does the Ratio Ki read?
A: Its Ratio Ki is over 38.3.

Q: For `COc1ccc2c3c1O[C@H]1[C@@]4(OC)CC[C@@]5(C[C@@H]4c4ccccc4NC(=O)OCc4ccccc4)[C@@H](C2)N(CC2CC2)CC[C@]315`, which Ratio Ki is on record?
A: Its Ratio Ki is 22.5.

Q: Which Ratio Ki does the source give for `COc1ccc2c3c1O[C@H]1[C@@]4(OC)CC[C@@]5(C[C@@H]4c4ccccc4N(C)Cc4ccc(C(F)(F)F)cc4)[C@@H](C2)N(CC2CC2)CC[C@]315` here?
A: Its Ratio Ki is 19.7.

Q: For `COc1ccc2c3c1O[C@H]1[C@@]4(OC)CC[C@@]5(C[C@@H]4c4ccccc4NC(=O)c4ccccc4)[C@@H](C2)N(CC2CC2)CC[C@]315`, which Ratio Ki is on record?
A: The Ratio Ki was over 265.
